According to patent publication US20060198882A1, “Stable liposomes or micelles comprising a sphinolipid and a peg-lipopolymer” (priority 2003, published 2006):

What was measured:
[1] = Partition in the two phases of the Dole system; format: physicochemical
Protocol: The distribution of the C18 sphingosine-based ceramides with different acyl chain lengths and of DMS between the polar phase and respectively less polar phase (as defined below) of the Dole two phase system was determined. […] The different ceramides included: short (C2 Cer and C4 Cer), medium (C6 Cer and C8 Cer), long (C16 Cer). […] In: Liposome Technology 2nd Edn., G Gregoriadis (Ed.) CRC Press, Boca Raton, 1993, vol. 1, pp: 527-616]. The amount of each of the lipids used in each of the two phases was measured by thin-layer chromatography (TLC). For ceramide quantification TLC was developed in a solvent system containing chloroform/methanol (95:5 v/v). For DMS quantification TLC was developed in a solvent system containing chloroform/methanol/ammonia (89/9/2 v/v). Further, the TLC plate was sprayed with Copper sulfate reagent composed of 100 g anhydrous copper sulfate containing 80 ml of phosphoric acid (85%), %) dissolved in 600 ml of DDW. Copper sulphate reagent was applied to the plates by spraying, then heated and lipids appeared as dark brown spot. […] Quantity of ceramides in each phase was calculated from a standard curve of appropriate ceramide. […] (1993)Supra]. The distribution between the two Dole system phases was determined by the equation (as exemplified for ceramide): [formula] [formula] […]

[2] = Partition in the two phases of the Dole system; format: physicochemical; remark: listed apart in the source

## N-carbamyl-poly-(ethylene glycol methyl ether)-1,2-distearoyl-sn-glycero-3-phosphoethanolamine triethyl ammonium salt [^2kPEG-DSPE]
[1]
  % of lipid in heptane-rich upper phase: 0%
  % of lipid in isopropanol/water lower phase: 100%
[2]
  Liposome formation (being a liposome forming lipid by itself): No
